# Earlier results as cited in US20150374767A1, “Treatment of Cancer” (priority 2013, published 2015).
# Amino acid sequences for entries named in this document (tags omitted). Residues count along the entry.
# UniProt P17948, 27-1338: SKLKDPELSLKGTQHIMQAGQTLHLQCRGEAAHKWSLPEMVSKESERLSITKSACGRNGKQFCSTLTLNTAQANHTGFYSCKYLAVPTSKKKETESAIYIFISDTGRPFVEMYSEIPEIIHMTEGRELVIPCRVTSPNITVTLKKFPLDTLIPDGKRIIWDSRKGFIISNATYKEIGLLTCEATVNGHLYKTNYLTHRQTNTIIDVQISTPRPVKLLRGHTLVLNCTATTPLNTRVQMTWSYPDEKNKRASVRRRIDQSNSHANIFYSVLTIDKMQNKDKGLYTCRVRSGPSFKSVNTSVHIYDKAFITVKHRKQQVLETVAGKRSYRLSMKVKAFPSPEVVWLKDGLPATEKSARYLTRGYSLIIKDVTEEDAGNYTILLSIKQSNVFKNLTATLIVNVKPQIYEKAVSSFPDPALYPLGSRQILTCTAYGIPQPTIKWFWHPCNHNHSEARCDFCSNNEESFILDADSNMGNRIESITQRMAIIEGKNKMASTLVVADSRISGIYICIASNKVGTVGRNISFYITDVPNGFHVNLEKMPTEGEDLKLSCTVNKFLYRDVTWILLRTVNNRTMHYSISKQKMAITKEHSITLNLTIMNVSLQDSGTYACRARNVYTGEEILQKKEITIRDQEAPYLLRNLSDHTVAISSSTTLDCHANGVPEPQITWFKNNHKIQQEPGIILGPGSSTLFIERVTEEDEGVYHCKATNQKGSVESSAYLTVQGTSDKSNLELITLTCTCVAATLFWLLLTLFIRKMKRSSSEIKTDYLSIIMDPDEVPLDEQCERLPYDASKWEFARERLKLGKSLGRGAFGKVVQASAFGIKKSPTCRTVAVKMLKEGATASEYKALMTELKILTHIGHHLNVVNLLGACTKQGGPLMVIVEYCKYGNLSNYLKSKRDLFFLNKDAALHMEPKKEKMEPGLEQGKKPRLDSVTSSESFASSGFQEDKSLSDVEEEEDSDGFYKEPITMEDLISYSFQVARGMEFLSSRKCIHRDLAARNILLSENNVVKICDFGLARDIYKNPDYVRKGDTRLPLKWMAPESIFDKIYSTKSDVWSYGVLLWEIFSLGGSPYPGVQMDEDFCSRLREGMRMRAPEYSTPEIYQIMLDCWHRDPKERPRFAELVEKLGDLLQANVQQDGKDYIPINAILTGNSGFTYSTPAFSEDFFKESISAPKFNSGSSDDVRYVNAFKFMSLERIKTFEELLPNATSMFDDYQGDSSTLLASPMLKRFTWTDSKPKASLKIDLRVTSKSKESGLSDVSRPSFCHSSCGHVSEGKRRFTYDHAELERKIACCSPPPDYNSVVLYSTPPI
# Structures can show the parent of a compound that is named as a salt.
# Target: VEGFR1 (Homo sapiens, UniProt P17948)
# Conditions: cited from earlier work
compound,measurement,value
"COc1cc2ncnc(Nc3ccc(Cl)cc3F)c2cc1OC [ZM 306416, 4-[(4′-Chloro-2′-fluoro)phenylamino]-6,7-dimethoxyquinazoline hydrochloride]",IC50,33 µM
